Results as given in patent US20100222251A1, “MIXTURE COMPRISING AN AMYLIN PEPTIDE AND A PROTRACTED INSULIN” (Novo Nordisk A/S, priority 2007, published 2010).

How the values were obtained:
[1] = pramlintide without the insulin analogue; cited from earlier work
[2] = Solubility versus pH curves (centrifugation, reverse HPLC); assay type: physicochemical; conditions: Example 3 mix, 0.6 mM GlyA21 ArgB31 ArgB32 human insulin, 0.3 mM Zn(Ac)2, 30 mM phenol, 100 μM pramlintide
Experimental: Solubility versus pH curves were measured in the following way. A formulation was prepared and aliquotes were adjusted to pH values in the desired range by adding HClO4 or HCl and NaOH. These samples were left equilibrating at room temperature for 2-3 days. Then the samples were centrifuged. A small aliquot of each sample was withdrawn for reverse HPLC analysis for determination of the concentration of the proteins in solution. The pH of each sample was measured after the centrifugation, and the concentration of each protein was depicted versus the measured pH.

solubility state at pH 7 [2]: completely precipitated
SMILES: CC[C@H](C)[C@H](NC(=O)[C@@H]1CCCN1C(=O)CNC(=O)[C@H](Cc1ccccc1)NC(=O)[C@H](CC(N)=O)NC(=O)[C@H](CC(N)=O)NC(=O)[C@H](CO)NC(=O)[C@H](CO)NC(=O)[C@H](Cc1c[nH]cn1)NC(=O)[C@@H](NC(=O)[C@H](CC(C)C)NC(=O)[C@H](Cc1ccccc1)NC(=O)[C@H](CC(N)=O)NC(=O)[C@H](C)NC(=O)[C@H](CC(C)C)NC(=O)[C@H](CCCNC(=N)N)NC(=O)[C@H](CCC(N)=O)NC(=O)[C@@H](NC(=O)[C@H](C)NC(=O)[C@@H]1CSSC[C@H](NC(=O)[C@@H](N)CCCCN)C(=O)N[C@@H](CC(N)=O)C(=O)N[C@@H]([C@@H](C)O)C(=O)N[C@@H](C)C(=O)N[C@@H]([C@@H](C)O)C(=O)N1)[C@@H](C)O)C(C)C)C(=O)N[C@@H](CC(C)C)C(=O)N1CCC[C@H]1C(=O)N1CCC[C@H]1C(=O)N[C@H](C(=O)N[C@@H](CC(N)=O)C(=O)N[C@H](C(=O)NCC(=O)N[C@@H](CO)C(=O)N[C@@H](CC(N)=O)C(=O)N[C@H](C(=O)N[C@@H](Cc1ccc(O)cc1)C(N)=O)[C@@H](C)O)C(C)C)[C@@H](C)O [pramlintide, Pro25 Pro28 Pro29-h-amylin]
solubility at pH 7.4 (usual behaviour, alone) [1]: soluble
